# Statin myotox sup – protects C2C12 myotubes from simvastatin toxicity; 330,000 tested, 0.78% active; ATP luminescence, 48 h; scaled: DMSO 0, geranylgeraniol control 100; rescue of ATP level, % at 7.49 µM;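 active = mean ATP rescue above about 67%, or every replicate alone reaching that limit, limit read from the data, passing the limit was not always enough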;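 also: myotubes were challenged with 10 µM simvastatin during compound exposure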
# Yeast UUG start-1 – yeast start codon fidelity modulation. S. cerevisiae UUG-firefly luciferase reporter, luminescence/redox ratio. activity score, % at 18.7 µM. 0.13% of 350,000 active;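 active = replicate mean at a twofold rise or more, about +100% in these data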;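 also: firefly luciferase made from a UUG start codon reports start codon fidelity; reporter light over untreated wells divided by growth signal over untreated wells; some hits fall short of that in this replicate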
# esBAF inh – inhibitors of esBAF chromatin remodeling in mouse ES cells; 350,000 tested, 2% active; AID 602393; Bmi1-luciferase knock-in reporter, 24 h; 100% = twice the neutral-well signal; reporter increase, % at 12.5 µM; in the data active = activation above about 40%;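 also: 0% = median of the plate's neutral control wells and 100% = double that signal; a rise in the Bmi1 reporter signal indicates esBAF inhibition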
# PglD DTNB – PglD (C. jejuni) enzyme inhibition; purified PglD enzyme, DTNB colorimetric CoA detection; inhibition, % at 12.5 µM; 360,000 tested, 0.098% active; in the data active = inhibition above about 16%, passing the limit was not always enough
# PGC1a acetyl inh – PGC1a acetylation modulation, inhibitor mode; U2OS PGC1a acetylation, AlphaScreen anti-acetyl-lysine; with virally co-expressed GCN5 acetyltransferase; inhibition, % at 15.6 µM; 350,000 tested, 0.17% active; AID 651687;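 active = every replicate shows inhibition of at least 40%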;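 also: 0% = neutral control wells and 100% = positive control wells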
# E-sel inducer – E-selectin induction on HUVECs. P16581. HUVEC E-selectin immunofluorescence imaging; normalized: neutral wells 0, TNF-alpha wells 100. activation, % at 7.58 µM. 260,000 tested, 0.37% active;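 active = mean E-selectin-positive cell signal at least 10% of the positive control, reached in at least 60% of replicates, without over 20% cell loss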
#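 Read-out: % PE-positive cells | Test system: HUVEC | Doses: One compound dose added by pin transfer | Buffer or medium: EGM-2 over gelatin coat | Signal: Immunofluorescence imaging | Benchmarks: TNF-alpha, DMSO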
# Yeast UUG start-2 – modulators of start codon recognition fidelity in yeast. 540 tested, under 10 active. activation, % at 38 µM. shares compounds with Yeast UUG start-1. S. cerevisiae UUG-start firefly luciferase, luminescence, 4 h; 100% means double the DMSO signal;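 active = signal increase whose fitted curve reaches an absolute level of 40 at a concentration under 10 µM; inactive = activity opposite to the expected increase, or the rest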
# An asterisk follows results filed as active; i = inactive; x = not tested or not shown. A selection: hits, their analogues and other compounds. The true share with any hit is near 2.8%.
# Fields – PGC1a acetyl inh, Yeast UUG start-2, Yeast UUG start-1, PglD DTNB, esBAF inh, E-sel inducer, Statin myotox sup
C[C@@H](NC(=O)C[C@@H]1CC[C@H](NC(=O)C2CCOCC2)[C@H](CO)O1)c1ccccc1
  2.3, i, 170.8*, -1.3, -4.0, 0.5, -2.6
C[C@@H](NC(=O)C[C@@H]1CC[C@H](NC(=O)Nc2ccc3c(c2)OCO3)[C@@H](CO)O1)c1ccccc1
  -7.0, i, 127.3*, 2.3, 2.1, -0.7, 0.5
O=C(c1ccccc1F)N1C[C@H]2[C@@H](c3ccccc31)[C@@H](CO)N2C(=O)C1CCCC1
  6.0, x, -3.2, -4.3, -4.0, 0.1, -23.0
CCOC(=O)CNC(=O)c1nn(-c2ccc(OCC)cc2)c(=O)c2ccccc12
  11.2, -8.8, 119.1*, 1.2, -4.1, x, -0.3
O=C(CSc1nc2ccccc2c(=O)n1Cc1ccco1)c1ccccc1
  -8.3, 1.7, -17.1, 0.4, 5.4, x, 26.7
Cc1cc(-n2c(C)cc(C(=O)CSc3nc4ccccc4c(=O)n3Cc3ccco3)c2C)no1
  -14.7, 1.3, 684.7*, -13.5, 13.4, x, 10.9
Cc1ccc(CSc2nc3ccccc3c(=O)n2Cc2ccco2)cc1
  -10.7, x, -20.7, -2.1, 3.6, x, 36.4
CCOC(=O)CSc1nc2ccccc2c(=O)n1Cc1ccco1
  x, x, 4.3, -1.3, 1.4, x, 5.4
COCCn1c(SCC(=O)NC(=O)Cc2ccccc2)nc2ccccc2c1=O
  -6.4, x, -14.4, -4.0, -3.7, 0.0, 6.5
COCCn1c(SCC(=O)c2cc(C)n(C)c2C)nc2ccccc2c1=O
  -8.7, -1.8, x, x, x, -1.0, x
C[C@H]1CN([C@@H](C)CO)C(=O)c2cc(N(C)C)ccc2O[C@@H]1CN(C)S(C)(=O)=O
  8.1, x, 4.0, -2.7, 5.0, 0.0, -5.9
O=C(Cc1ccccc1)N1C[C@H]2[C@@H](c3ccccc31)[C@@H](CO)N2C(=O)C1CCOCC1
  4.1, i, 116.0*, -1.8, 10.3, 0.0, -7.1
CCOc1ccccc1Nc1nc2ccccc2n1C(C)C
  x, 3.9, -3.7, 6.4, 8.4, x, -17.1
C/C=C/c1ccc2c(c1)O[C@@H](CN(C)CCC)[C@@H](C)CN([C@H](C)CO)S2(=O)=O
  2.1, i, 85.3*, 2.5, -6.0, 1.3, 0.1
CCCN(C)C[C@H]1Oc2cc(/C=C/c3ccccc3)ccc2S(=O)(=O)N([C@H](C)CO)C[C@@H]1C
  3.0, x, 9.8, -0.8, -3.1, 0.2, -0.5

# (more compounds)
# Fields – PGC1a acetyl inh, Yeast UUG start-2, Yeast UUG start-1, PglD DTNB, esBAF inh, E-sel inducer, Statin myotox sup
CCCN(C)C[C@@H]1Oc2cc(C3=CCCCC3)ccc2S(=O)(=O)N([C@@H](C)CO)C[C@H]1C
  -22.4, x, x, x, -2.3, x, -89.0
C/C=C/c1ccc2c(c1)O[C@H](CN(C)C(=O)C1CCC1)[C@H](C)CN([C@H](C)CO)S2(=O)=O
  0.6, x, x, x, x, 0.1, -13.2
C/C=C/c1ccc2c(c1)O[C@H](CN(C)Cc1ccc(C(=O)O)cc1)[C@H](C)CN([C@H](C)CO)S2(=O)=O
  -0.1, i, 192.1*, 4.5, 4.2, -0.2, -6.2
C/C=C/c1ccc2c(c1)O[C@H](CN(C)C(=O)C1CCCCC1)[C@H](C)CN([C@H](C)CO)S2(=O)=O
  -4.6, i, 200.9*, -1.2, 0.3, -0.1, 7.4
C/C=C/c1ccc2c(c1)O[C@H](CN(C)Cc1ccc(C(=O)O)cc1)[C@@H](C)CN([C@H](C)CO)S2(=O)=O
  -7.0, x, 7.1, 1.6, 2.2, -0.2, -5.4
CCCN(C)C[C@@H]1Oc2cc(C3=CCCCC3)ccc2S(=O)(=O)N([C@@H](C)CO)C[C@@H]1C
  -13.4, i, 155.9*, 1.8, -5.3, -0.3, -61.0
CNC(=O)C[C@H]1CC[C@@H]2[C@@H](COc3ccc(NC(=O)c4ccc(F)cc4)cc3C(=O)N2C)O1
  3.4, x, -11.0, x, -5.2, -0.1, 17.2
O=C(C[C@@H]1C[C@@H]2c3cc(NC(=O)NC4CCCC4)ccc3O[C@@H]2[C@@H](CO)O1)NCc1ccccn1
  0.3, x, x, x, x, -0.1, x
CCCc1[nH]nc2c1C(Cc1ccccc1)C(C#N)=C(N)O2 (stereo not drawn)
  6.0, 9.8, 500.8*, 1.7, -5.5, x, 3.5
Cc1noc(C)c1S(=O)(=O)Nc1ccc2c(c1)C(=O)N([C@H](C)CO)C[C@@H](C)[C@H](CN(C)C(=O)c1ccccc1)OCCCC[C@@H](C)O2
  -8.9, x, 30.0, 14.2, 1.7, -0.1, x
O=C(NCc1cccc(Cl)c1)c1ccc(-n2ccnc2)c2ccoc12
  -51.6, -7.2, 125.6*, 1.0, 14.2, -0.2, -1.6
COc1ccc(CNC(=O)c2ccc(-n3cncn3)c3ccoc23)cc1OC
  -18.7, x, -4.7, -6.1, 3.8, 0.0, 0.2
Cc1noc(C)c1-c1ccc(C(=O)NCc2cccc(Cl)c2)c2occc12
  0.2, x, -6.6, 1.2, -0.3, -0.4, -3.2
COc1ccc(CNC(=O)c2ccc(-n3ccnc3)c3ccoc23)cc1OC
  -5.9, -3.4, 177.4*, -5.6, 4.9, 0.2, -1.5
COc1ccc2c3c(n(C)c2c1)[C@@H](CO)N(C(=O)Nc1ccc(F)cc1)CC31CN(C(=O)c2ccccc2F)C1
  -7.8, x, x, x, x, 0.6, x

# Arranged by value in PglD DTNB (falling): some entries from above
compound | PGC1a acetyl inh | Yeast UUG start-2 | Yeast UUG start-1 | PglD DTNB | esBAF inh
C[C@@H](NC(=O)C[C@@H]1CC[C@H](NC(=O)Nc2ccc3c(c2)OCO3)[C@@H](CO)O1)c1ccccc1 | -7.0 | i | 127.3* | 2.3 | 2.1
Cc1noc(C)c1-c1ccc(C(=O)NCc2cccc(Cl)c2)c2occc12 | 0.2 | x | -6.6 | 1.2 | -0.3
COc1ccc(CNC(=O)c2ccc(-n3ccnc3)c3ccoc23)cc1OC | -5.9 | -3.4 | 177.4* | -5.6 | 4.9

# 3 compounds already listed, sorted by count of non-hydrogen atoms, low to high.
# Fields – PGC1a acetyl inh, Yeast UUG start-2, Yeast UUG start-1, PglD DTNB, esBAF inh, E-sel inducer, Statin myotox sup
CCCc1[nH]nc2c1C(Cc1ccccc1)C(C#N)=C(N)O2 (stereo not drawn)
  6.0, 9.8, 500.8*, 1.7, -5.5, x, 3.5
COc1ccc(CNC(=O)c2ccc(-n3cncn3)c3ccoc23)cc1OC
  -18.7, x, -4.7, -6.1, 3.8, 0.0, 0.2
Cc1noc(C)c1S(=O)(=O)Nc1ccc2c(c1)C(=O)N([C@H](C)CO)C[C@@H](C)[C@H](CN(C)C(=O)c1ccccc1)OCCCC[C@@H](C)O2
  -8.9, x, 30.0, 14.2, 1.7, -0.1, x

# Going on with the list:
# Fields – PGC1a acetyl inh, Yeast UUG start-2, Yeast UUG start-1, PglD DTNB, esBAF inh, E-sel inducer, Statin myotox sup
CC1(C(O)(C#CC[N+]2(C)CCCCC2)c2ccccc2)CCCC1 (stereo not drawn)
  -2.5, x, x, x, 2.7, -5.6, 9.5
NC(=O)C[N+]1(CC#CC(O)(c2ccccc2)c2ccccc2)CCCC1
  -8.1, -3.7, x, x, -7.5, 0.1, 1.4
CCOc1ccc(C(C)=O)cc1CSc1nc(C)cc(C)n1
  -2.8, 4.2, 212.6*, 6.9, -6.6, x, -12.0
Cc1ccccc1S(=O)(=O)NC1=NCCCCC1
  11.8, x, x, x, -2.8, x, -5.7
O=S(=O)(NC1=NCCCCC1)c1ccccc1Cl
  -9.9, -2.4, 446.5*, -0.3, 1.8, x, -0.2
C[C@@H]1CN([C@H](C)CO)C(=O)c2cc(NC(=O)CCCN(C)C)ccc2O[C@H]1CN(C)C(=O)Nc1ccc(F)cc1
  0.6, x, -4.6, 1.6, 2.9, -0.1, -19.4
C[C@H]1CN([C@@H](C)CO)C(=O)c2ccccc2-c2ccccc2CO[C@H]1CN(C)C(=O)Cc1ccccc1
  10.9, x, x, -0.2, 0.7, -3.4, x
Cc1cc(OCCOCCNC(C)C)cc(C)c1Cl
  5.9, x, -16.4, 3.8, -8.0, x, -11.0
Cc1cc(OCCCCNC(C)C)cc(C(C)C)c1
  -12.4, 7.9, 228.6*, 0.8, -4.9, x, 4.0
Cc1ccc(C(=O)NCCSC(C)(C)C)cc1
  -3.6, -32.1, 321.4*, 2.6, -31.9, x, x
CN1CCN(C(=O)C[C@H]2CC[C@@H]3[C@@H](COc4ccc(NC(=O)C5CCCC5)cc4C(=O)N3C)O2)CC1
  x, x, x, x, x, -0.1, x
CCCNC(=O)C[C@@H]1C[C@@H]2c3cc(NC(=O)COC)ccc3O[C@@H]2[C@H](CO)O1
  3.4, x, x, -3.1, -1.1, 0.7, 4.9
COc1ccccc1Nc1nc2ccccc2[nH]1
  4.6, -2.4, -20.5, -0.4, 39.8, x, -10.9
